Results: patent publication US20150313913A1, “POSITIVE ALLOSTERIC MODULATORS OF THE GABA-A RECEPTOR IN THE TREATMENT OF AUTISM” (UNIVERSITY OF WASHINGTON THROUGH ITS CENTER FOR …, priority 2013, published 2015)
Entries after “also recorded” stand apart in the source; their conditions may differ.

What was measured:
BTBR mice [1] = assay: Open field test; assay type: in vivo; settings: 0.05 mg/kg daily for 14 days
Protocol: Open field test was performed as previously described (Han et al., 2012). 50×50 cm square open field arena with non-transparent white Plexiglas was used in this study. During the 10 min of trial, total distance moved, circling behavior (a complete 360-degree turn of nose angle with respect to the body center) and time in center (20×20 cm imaginary square) were measured by the video-tracking software (EthoVision XT 8.5, Noldus Technology).

BTBR mice [2] = assay: Three-chamber social interaction test; settings: doses from 0.00625 mg/kg to 0.05 mg/kg; from approximately 1.0 untreated
Protocol: In the three-chamber test, a test mouse is placed in the center chamber, and the preference of the test mouse for interaction with an inanimate object (a small empty cage) in the left chamber vs. a stranger mouse in an identical cage in the right chamber using a digital camera and quantitative video-tracking analysis.
The test was performed as described previously (Han et al., 2012) with minor modifications. The threechamber apparatus is a non-transparent Plexiglas box (30×60 cm) with two transparent partitions that make left, center, and right chambers (30×20 cm). In the first 10-min session, a test mouse was placed in the center of the empty three-chamber unit to habituate the test mouse. The mouse was allowed to freely explore each chamber. In the second 10-min session, an age- and gender-matched same strain mouse that had never been exposed to the test mouse, was placed in one of the two wire cages. The empty wire cage as an inanimate object cue was placed on the other side. […] Time spent in each chamber, and time spent within a 5 cm radius proximal to each wire cage, as a close interaction were measured by the videotracking software (EthoVision XT 8.5, Noldus Technology). All data shown are means±s.e.m. and analyzed using two-way ANOVA with Bonferroni's post hoc analysis and one-way ANOVA with Tukey's post hoc analysis. […]

[3] = test system: C57BL/6J hippocampal CA1 slices; assay: Brain slice electrophysiology (spontaneous IPSC/EPSC); assay type: cell-based, mice; settings: 0.5 μM
[4] = test system: Scn1a+/− hippocampal CA1 slices; assay: as above; assay type: cell-based, mice; settings: 10 μM
[5] = test system: BTBR hippocampal CA1 slices; assay: as above; assay type: cell-based, mice; settings: 0.5 μM

O=C1CN=C(c2ccccc2Cl)c2cc([N+](=O)[O-])ccc2N1 [Clonazepam]
ratio of activity on Days 1 and 14 (BTBR mice [1]): did not alter
ratio of time spent interacting with the mouse vs. the object (BTBR mice [2]): approximately 2.5
spontaneous EPSC amplitude [3]: without change in amplitude; also recorded: not changed
spontaneous EPSC frequency [3]: decreased
spontaneous IPSC amplitude [3]: significant increase; also recorded: not changed
spontaneous IPSC frequency [3]: no change; also recorded: not changed
sIPSC amplitude [4]: increased
sEPSC amplitude ([4]; listed as CLZ): without change in amplitude; also recorded: unchanged
sEPSC frequency ([4]; listed as CLZ): decrease in frequency; also recorded: decreased
sIPSC frequency ([4]; listed as CLZ): but not frequency; also recorded: unchanged
spontaneous EPSC amplitude [5]: without change in amplitude; also recorded: unchanged
spontaneous EPSC frequency [5]: decrease in frequency
spontaneous IPSC amplitude [5]: increased
spontaneous IPSC frequency [5]: significantly increased
